Assay: Water insoluble solvents tested for dissolving cholesterol / arterial plaque
Conditions: medium not stated

Compound: CCCCCCCC/C=C\CCCCCCCC(=O)O [oleic acid]
- result of solvent testing (dissolving cholesterol): very promising results

— patent US11123292B2, “Use of biocompatible microdroplets for the treatment of atherosclerosis, heart disease and stroke” (priority 2014, dated 2021)
